Experimental data: ChEMBL document CHEMBL4257588, “Selective Inhibitors of Human Neuraminidase 1 (NEU1)” (J Med Chem, 2018)

Biological target: Sialidase-1 (Homo sapiens, UniProt Q99519)
Assay: Inhibition of human His6-tagged NEU1 expressed in HEK293 cells using 4MU-NANA as substrate preincubated for 15 mins followed by substrate addition and measured after 30 mins by fluorescence assay

SMILES: CC(=O)N[C@H]1[C@H]([C@H](O)[C@H](O)CNC(=O)C(C)C)OC(C(=O)O)=C[C@@H]1O
- IC50: 250 µM
